Antibody variant affinities, Ab-14 light chain, assay 1

Target peptide (SARS-CoV-2 spike, HR2 region): PDVDLGDISGINAS

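The starting antibody came from a phage panning campaign against this peptide. Variants in AAYL50 differ from the parent at up to three CDR positions; double and triple changes were sampled at random. The scFvs were displayed on barcoded MATa yeast, the peptide on MATalpha yeast. Pairs that bind mate more often; barcode pairs of the diploids are counted by sequencing. Read counts were normalised to the haploid input and turned into Kd by a linear fit to BCL2-family pairs of known affinity, for each replicate. Each pool was mated in three replicate cultures.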

Parent: Ab-14, a human scFv built as VH, three GGGGS repeats, VL. Only the CDRs of the light chain vary.
VH: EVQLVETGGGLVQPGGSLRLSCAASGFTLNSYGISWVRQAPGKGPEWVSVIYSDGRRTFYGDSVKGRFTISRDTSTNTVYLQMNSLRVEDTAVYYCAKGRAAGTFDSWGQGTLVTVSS
VL: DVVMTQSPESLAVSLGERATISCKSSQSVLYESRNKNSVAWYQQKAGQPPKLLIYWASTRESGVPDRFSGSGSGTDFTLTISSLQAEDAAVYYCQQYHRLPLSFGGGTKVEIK

Changes read parent residue, position, new residue, counted from the first residue of the VL shown.
The read-out is the apparent dissociation constant on a log10 scale (nM): the lower, the stronger.
Replicates are averaged; those with no signal do not enter the mean.
Where no diploid with the target was found in that replicate, the entry reads "nd": below detection, most likely a poor binder, though not proof of it.
Three control strains display no target. For library AAYL50, 18% of the pairings with them gave a signal, with a median of 4.19 and one signal in twenty below 2.99, so weak values seen in few replicates may be background. For each scFv, signals with the empty controls are counted beside the result, with their mean in brackets.

| # | changes | log10 Kd (nM) by replicate | log10 Kd (nM), mean | empty controls |
|---|---|---|---|---|
| 1 | V29P/K36T/E61P | 1.09 1.59 1.26 | 1.31 | 0 of 9 |
| 2 | S33I/N37A/T59A | nd nd nd | nd | 0 of 9 |
| 3 | S26M/W56I/Y97Q | nd 4.07 nd | 4.07 | 2 of 9 (4.14) |
| 4 | K36D/S38D/S103D | 2.79 2.48 2.38 | 2.55 | 0 of 9 |
| 5 | S58I/T59I/Q95S | 2.05 1.47 1.82 | 1.78 | 1 of 9 (3.53) |
| 6 | E32M/V39G/E61W | nd nd nd | nd | 2 of 9 (3.23) |
| 7 | R34K/Q96H/Y97G | nd nd nd | nd | 0 of 9 |
| 8 | K36M/S38Q/A40M | 4.97 4.06 3.75 | 4.26 | 2 of 9 (4.26) |
| 9 | S26Y/N37Y/S58F | 2.22 2.01 2.28 | 2.17 | 1 of 9 (3.45) |
| 10 | S26K/S58W/Q96Y | nd nd nd | nd | 1 of 9 (3.22) |
| 11 | S33T/R34Y/R99N | 0.97 1.09 1.08 | 1.04 | 2 of 9 (5.40) |
| 12 | E32A/E61H/S62K | 2.68 2.91 3.33 | 2.97 | 0 of 9 |
| 13 | L30T/A40H/P101S | 5.51 3.76 nd | 4.63 | 3 of 9 (4.46) |
| 14 | K24V/S26E/Y97T | nd nd nd | nd | 0 of 9 |
| 15 | V39P/H98S | nd nd 4.16 | 4.16 | 0 of 9 |
| 16 | K24Q/R34L/R60P | 2.12 2.39 2.02 | 2.18 | 4 of 9 (4.48) |
| 17 | N37L/A57N/Q96N | nd nd nd | nd | 1 of 9 (3.45) |
| 18 | L30G/R60M/S103G | nd nd nd | nd | 1 of 9 (3.62) |
| 19 | S28W/N35Y/Q95W | nd nd nd | nd | 0 of 9 |
| 20 | A57H/S58H/P101S | nd nd nd | nd | 1 of 9 (3.74) |
| 21 | V39K/W56Y/P101M | nd nd nd | nd | 2 of 9 (3.83) |
| 22 | K24H/V29Y/V39Q | nd nd nd | nd | 0 of 9 |
| 23 | V29D/S58T/T59A | 0.82 0.92 0.91 | 0.88 | 5 of 9 (5.12) |
| 24 | N35W/A40D/L102W | nd nd nd | nd | 0 of 9 |
| 25 | Q27F/S58W/H98E | 1.32 nd nd | 1.32 | 1 of 9 (2.88) |
| 26 | W56R/R60G/P101I | nd nd nd | nd | 0 of 9 |
| 27 | L30P/V39T/R99F | 3.79 4.20 nd | 3.99 | 2 of 9 (3.62) |
| 28 | K36Q/S38N/Q95D | nd nd nd | nd | 1 of 9 (4.55) |
| 29 | S25C/S62F/H98Q | 2.61 1.55 nd | 2.08 | 0 of 9 |
| 30 | R34C/K36T/L100F | 1.63 1.54 1.59 | 1.59 | 2 of 9 (3.50) |
| 31 | S26A/T59F | 1.74 1.38 1.38 | 1.50 | 2 of 9 (3.37) |
| 32 | L30F/N37T/A57I | 3.75 4.11 4.77 | 4.21 | 4 of 9 (4.27) |
| 33 | Y31S/T59I/E61H | 1.04 1.17 1.11 | 1.11 | 3 of 9 (3.53) |
| 34 | K24Y/Q27Y/A57N | nd 3.91 nd | 3.91 | 3 of 9 (3.87) |
| 35 | Q95K | 5.27 3.13 4.02 | 4.14 | 6 of 9 (4.51) |
| 36 | S33R/N35I/A57N | nd nd nd | nd | 1 of 9 (4.12) |
| 37 | S33F/A40V/L102E | nd nd nd | nd | 1 of 9 (3.28) |
| 38 | A40L/A57Q/P101Q | nd nd nd | nd | 0 of 9 |
| 39 | N35Y/S38L/S58W | nd nd nd | nd | 0 of 9 |
| 40 | N35L/R60G/P101M | nd nd nd | nd | 0 of 9 |
| 41 | R34I/S38R/V39D | nd nd nd | nd | 1 of 9 (4.24) |
| 42 | S25L/V39C/H98F | 2.08 2.13 2.09 | 2.10 | 0 of 9 |
| 43 | Y31G/A40E | nd nd nd | nd | 0 of 9 |
| 44 | L30G/N35G/V39L | 2.87 2.14 2.27 | 2.43 | 1 of 9 (4.16) |
| 45 | S26C/K36Y/Q96L | nd nd nd | nd | 1 of 9 (4.24) |
| 46 | Q27H/A40G/Y97V | 3.79 nd nd | 3.79 | 1 of 9 (3.34) |
| 47 | S33I/P101V/L102Q | nd nd nd | nd | 1 of 9 (4.59) |
| 48 | R34C/L100V | 1.01 1.07 1.08 | 1.05 | 4 of 9 (4.00) |
| 49 | K24M/H98P/P101C | nd 3.26 nd | 3.26 | 3 of 9 (4.13) |
| 50 | A40D/S62I/L102H | nd nd nd | nd | 1 of 9 (3.40) |

The first 3 entries again:

| changes | log10 Kd (nM) by replicate | log10 Kd (nM), mean | empty controls |
|---|---|---|---|
| V29P/K36T/E61P | 1.09 1.59 1.26 | 1.31 | 0 of 9 |
| S33I/N37A/T59A | nd nd nd | nd | 0 of 9 |
| S26M/W56I/Y97Q | nd 4.07 nd | 4.07 | 2 of 9 (4.14) |

Source: Engelhart et al. 2022 (doi:10.1038/s41597-022-01779-4), MIT Lincoln Laboratory and A-Alpha Bio; data file from the FLAb repository.